{"source": "patent US20250353828A1", "about": "“SUBSTITUTED BIARYL ENDOCHIN-LIKE QUINOLONES WITH ENHANCED ANTIPARASITIC ACTIVITY” (Oregon Health & Science University, priority 2022, published 2025)", "key": {"[1]": {"tested_on": "P. falciparum cytochrome bc1 complex", "format": "biochemical", "conditions": "based on enzyme inhibitory activity", "text": "Isolation of Plasmodium falciparum Mitochondria and Ubiquinol-Cytochrome c Oxidoreductase Assay."}, "[2]": {"target": "T1, P. falciparum cytochrome bc1 complex (Plasmodium falciparum, UniProt Q02768)", "T1 construct": "endogenous in cells", "T1 sequence (Q02768 1-376)": "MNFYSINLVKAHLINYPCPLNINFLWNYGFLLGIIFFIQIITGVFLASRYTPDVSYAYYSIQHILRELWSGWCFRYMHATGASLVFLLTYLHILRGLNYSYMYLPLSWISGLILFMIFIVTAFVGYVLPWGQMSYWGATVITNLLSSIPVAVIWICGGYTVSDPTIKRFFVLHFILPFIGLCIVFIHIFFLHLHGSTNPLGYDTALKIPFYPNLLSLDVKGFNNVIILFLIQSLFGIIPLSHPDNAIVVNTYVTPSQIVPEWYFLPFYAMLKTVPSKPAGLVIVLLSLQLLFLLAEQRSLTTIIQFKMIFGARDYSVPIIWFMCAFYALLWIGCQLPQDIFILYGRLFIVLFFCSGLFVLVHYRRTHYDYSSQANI", "conditions": "data taken from Nilsen et al., 2013 (a) or Frueh et al., 2017 (b); cited from earlier work"}}, "data": [{"compound": "O=C1C(O)=C([C@H]2CC[C@H](c3ccc(Cl)cc3)CC2)C(=O)c2ccccc21", "note": "[Atovaquone, reference compound]", "values": [{"measurement": "Selectivity Index Human/Pf cyt. bc1", "setting": "[1]", "result": 230}, {"measurement": "IC50", "setting": "[2]", "result": 2, "unit": "nM"}]}]}
